## Ab-14 heavy chain CDR variants: yeast mating affinities

Reference: Li et al. 2023, doi:10.1038/s41467-023-39022-2. File: FLAb, binding data.

The target is the same throughout: PDVDLGDISGINAS, from the HR2 region of SARS-CoV-2 spike.

Parent: Ab-14, a human scFv built as VH, three GGGGS repeats, VL. Only the CDRs of the heavy chain vary.
VH: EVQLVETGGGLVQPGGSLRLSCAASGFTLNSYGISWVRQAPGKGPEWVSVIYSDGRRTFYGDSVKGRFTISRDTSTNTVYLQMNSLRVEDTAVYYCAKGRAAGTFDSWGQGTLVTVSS
VL: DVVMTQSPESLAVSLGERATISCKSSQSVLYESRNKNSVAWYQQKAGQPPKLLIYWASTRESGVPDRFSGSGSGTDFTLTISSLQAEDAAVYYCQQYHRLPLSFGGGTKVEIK

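These sequences belong to a second round, designed from the earlier measurements on random variants of the parent. Their group label is 14H_GP_Gibbs (GP: Gaussian process model; Gibbs: Gibbs sampling; a sequence that several methods proposed may carry one label only). The assay is AlphaSeq: two haploid yeast populations carry antibody and antigen on their surface. Pairs that bind mate more often; barcode pairs of the diploids are counted by sequencing. Each replicate has its own calibration line, from reference interactions of the BCL2 family. Each pool was mated in six replicate cultures.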

Changes read parent residue, position, new residue, counted from the first residue of the VH shown.
The read-out is the apparent dissociation constant on a log10 scale (nM): the lower, the stronger.
"nd" means that the variant was in the library but no mating with the target was seen in that replicate; the authors take this as a sign of poor binding, and no number exists.
Nonspecific signal, from three strains lacking the peptide, appeared in 1% of pairings of all heavy chain designs, centred on 2.08 (5% of these signals below 0.84); values are not corrected for it. The control count says in how many pairings with the empty strains this scFv gave a signal.
Of ten entries with the parent sequence, four were seen in most replicates (averages 0.34 to 2.37), three in one and three in none, so single entries are noisy.
The authors averaged sequences with at least three values out of six and counted those with two or fewer as poor binders.
Values of this round are not directly comparable with the first-round values of the same sequences.

T28Q S63Q A101N: nd, 1.38, 0.79, 1.63, 1.16, 1.35 (controls 0 of 18).
T28E R100K A101K S107T: nd, nd, nd, 2.49, 2.35, 2.28 (controls 0 of 18).
T28S S63Q A101T S107K: 1.10, 0.77, 1.12, 1.02, 1.69, 1.32 (controls 0 of 18).
T28S S31E A101T F105I: nd, nd, nd, nd, nd, nd (controls 0 of 18).
T28D R56K S63K A101Q: 0.55, 0.61, 0.90, 0.71, 0.68, 0.78 (controls 0 of 18).
T28H G61V R100E S107T: nd, nd, nd, 0.79, 1.56, 0.57 (controls 0 of 18).
T28P R56M G61K A101T: 2.21, 2.17, 0.51, 0.74, 0.78, nd (controls 0 of 18).
T28N S63Q A101L: 2.28, 1.28, nd, 1.76, 2.63, 1.51 (controls 0 of 18).
T28D R56H R100K A101T: 0.15, -0.06, -0.13, 0.68, -0.28, 0.22 (controls 0 of 18).
T28D S31E R100W A101T: -0.06, -0.41, -0.10, 0.06, -0.34, 0.24 (controls 0 of 18).
T28E G61A S63D A101T S107T: -0.15, -0.58, -0.22, -0.02, -0.31, -0.09 (controls 1 of 18).
T28S S31K A101E: -0.92, -0.05, -1.31, -0.12, -1.32, -0.21 (controls 0 of 18).
T28Q R100K A101N S107T: 1.50, 1.42, 2.24, 1.20, 1.25, 1.63 (controls 0 of 18).
T28S G61S S63Q A101Q: 1.25, 1.01, 0.94, 1.14, 1.08, 1.08 (controls 0 of 18).
T28E G61S S63H R100K A101T: 1.28, 0.67, 0.28, 0.42, 0.68, 0.67 (controls 0 of 18).
T28V S31E G61Q R100E: 1.95, 0.85, 1.29, 2.11, 1.59, 0.72 (controls 0 of 18).
G26M R56K A101T S107T: nd, 1.71, nd, nd, nd, nd (controls 0 of 18).
R56M G61S S63Q A101T: 0.97, 0.96, 0.57, 0.27, 1.00, 0.52 (controls 1 of 18).
T28S G61S S63Q R100T: nd, nd, nd, nd, 1.43, nd (controls 1 of 18).
T28S G61A A101W S107K: 0.78, 0.37, 0.15, 0.40, 0.71, 0.46 (controls 0 of 18).
T28S S63R R100Q A101I: 0.59, 0.46, 0.77, 0.39, 0.60, 0.64 (controls 0 of 18).
N30K S53A S107I: nd, nd, nd, nd, nd, 0.01 (controls 0 of 18).
T28K A101T S107L: 1.86, 1.61, 1.22, 1.57, 1.43, 1.57 (controls 0 of 18).
T28W S31N F59A: nd, 1.00, 2.05, 1.63, 1.63, 2.97 (controls 0 of 18).
G26Y T28D R100K A101N: 1.08, 0.83, nd, 1.18, nd, 1.66 (controls 0 of 18).
G61S S63A R100K: 1.14, 0.72, 0.58, 1.31, 0.63, 0.83 (controls 0 of 18).
T28S S63D A101N S107T: 0.12, 0.18, -0.24, -0.34, -0.31, -0.31 (controls 0 of 18).
T28S G61D R100H A101Q: nd, nd, nd, nd, nd, nd (controls 0 of 18).
T28Q G61Q A101N S107T: 1.13, 1.26, 1.04, 1.35, 0.65, 1.59 (controls 0 of 18).
T28W S31D G61H R100Q A101T: 2.01, 0.82, nd, 1.03, 0.83, 1.34 (controls 0 of 18).
T28S S31Y S63A R100K A101T: 1.35, 0.80, 1.04, 1.43, 1.42, 2.80 (controls 1 of 18).
R56K G61I R100K S107V: -0.12, -0.31, 0.02, -0.23, 0.12, -0.02 (controls 0 of 18).
T28Q G61Q R100K: nd, 1.72, 1.47, 2.17, 2.45, 2.30 (controls 1 of 18).

Top 2 of the variants detected in all replicates, tightest first:

Variant T28S S31K A101E gave -0.92, -0.05, -1.31, -0.12, -1.32, -0.21 (controls 0 of 18).
Variant T28E G61A S63D A101T S107T gave -0.15, -0.58, -0.22, -0.02, -0.31, -0.09 (controls 1 of 18).